The numbers were not newly measured in patent US9267122B2, “Modulation of phospholipase D for the treatment of neurodegenerative disorders” (THE TRUSTEES OF COLUMBIA UNIVERSITY IN THE CITY OF NEW YORK, priority 2009, dated 2016), which cites them from elsewhere.

The series concerns the target T1, PLD1 (Homo sapiens, UniProt Q13393).
T1 sequence (Q13393 1-1074): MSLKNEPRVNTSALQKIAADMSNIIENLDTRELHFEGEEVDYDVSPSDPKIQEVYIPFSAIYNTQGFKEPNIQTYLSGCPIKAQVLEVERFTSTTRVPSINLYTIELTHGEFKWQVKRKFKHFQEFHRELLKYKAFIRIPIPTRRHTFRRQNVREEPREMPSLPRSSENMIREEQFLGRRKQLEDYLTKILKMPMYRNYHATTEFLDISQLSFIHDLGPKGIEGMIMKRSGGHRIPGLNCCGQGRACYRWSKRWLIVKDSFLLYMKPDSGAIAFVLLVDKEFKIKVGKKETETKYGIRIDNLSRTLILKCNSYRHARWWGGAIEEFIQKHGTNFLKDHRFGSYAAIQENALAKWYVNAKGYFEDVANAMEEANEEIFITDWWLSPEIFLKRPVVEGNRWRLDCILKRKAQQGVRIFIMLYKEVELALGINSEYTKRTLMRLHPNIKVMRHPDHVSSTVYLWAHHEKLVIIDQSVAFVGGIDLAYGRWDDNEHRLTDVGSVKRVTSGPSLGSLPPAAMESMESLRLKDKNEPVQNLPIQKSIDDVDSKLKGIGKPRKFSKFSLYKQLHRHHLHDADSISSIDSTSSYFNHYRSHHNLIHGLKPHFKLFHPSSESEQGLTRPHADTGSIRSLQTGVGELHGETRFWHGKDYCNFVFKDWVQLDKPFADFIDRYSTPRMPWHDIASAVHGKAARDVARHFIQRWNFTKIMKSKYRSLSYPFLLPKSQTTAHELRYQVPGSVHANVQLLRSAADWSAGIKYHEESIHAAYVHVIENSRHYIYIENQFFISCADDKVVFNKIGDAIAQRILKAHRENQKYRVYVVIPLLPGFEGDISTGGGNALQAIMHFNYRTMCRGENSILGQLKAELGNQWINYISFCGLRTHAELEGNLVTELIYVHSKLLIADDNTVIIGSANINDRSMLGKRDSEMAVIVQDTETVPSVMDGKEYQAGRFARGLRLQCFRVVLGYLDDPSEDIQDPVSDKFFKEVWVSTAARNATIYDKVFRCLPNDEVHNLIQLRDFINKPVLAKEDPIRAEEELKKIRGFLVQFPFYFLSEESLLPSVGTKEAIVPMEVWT
The following applies: PLD1 versus PLD2; cited from earlier work.

Regarding `O=C(NCCN1CCC2(CC1)C(=O)NCN2c1ccccc1)c1cnc2ccccc2c1` [compound 9b, N-(2-(4-oxo-1-phenyl-1,3,8-triazaspiro[4,5]decan-8-yl)ethyl)quinoline-3-carboxamide], the PLD isoform selectivity entry is recorded as “PLD2 selective”.
